Results taken from ChEMBL document CHEMBL1124320, “2,2-Difluoro-5-hexyne-1,4-diamine: a potent enzyme-activated inhibitor of ornithine decarboxylase” (J Med Chem, 1989).

How the values were obtained:
[1] = molecular target: T1, Ornithine decarboxylase (Rattus norvegicus) (UniProt P09057); conditions: 5 uM
T1 sequence (whole entry): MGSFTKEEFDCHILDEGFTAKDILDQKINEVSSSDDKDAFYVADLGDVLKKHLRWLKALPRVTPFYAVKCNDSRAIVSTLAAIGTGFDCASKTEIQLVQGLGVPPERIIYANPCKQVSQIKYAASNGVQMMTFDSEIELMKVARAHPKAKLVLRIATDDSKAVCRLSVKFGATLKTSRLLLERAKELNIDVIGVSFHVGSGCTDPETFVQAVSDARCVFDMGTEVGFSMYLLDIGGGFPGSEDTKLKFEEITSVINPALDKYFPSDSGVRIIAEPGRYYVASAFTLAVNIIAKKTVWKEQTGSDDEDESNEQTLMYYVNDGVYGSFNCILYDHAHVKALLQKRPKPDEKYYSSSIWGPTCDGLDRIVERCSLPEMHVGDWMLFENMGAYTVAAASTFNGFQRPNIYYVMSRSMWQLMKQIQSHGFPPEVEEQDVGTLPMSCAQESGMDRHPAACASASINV

[2] = molecular target: T2, S-adenosylmethionine decarboxylase proenzyme (Homo sapiens) (UniProt P17707)
T2 sequence (whole entry): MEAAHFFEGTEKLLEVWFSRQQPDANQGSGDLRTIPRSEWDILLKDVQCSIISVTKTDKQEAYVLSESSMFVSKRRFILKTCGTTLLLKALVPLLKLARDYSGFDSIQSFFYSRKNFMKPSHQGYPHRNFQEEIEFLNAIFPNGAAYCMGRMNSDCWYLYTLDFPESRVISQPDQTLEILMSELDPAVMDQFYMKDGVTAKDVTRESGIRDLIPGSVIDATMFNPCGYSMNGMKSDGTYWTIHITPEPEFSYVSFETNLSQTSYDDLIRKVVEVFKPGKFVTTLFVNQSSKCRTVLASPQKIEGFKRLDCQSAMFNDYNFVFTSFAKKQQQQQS

[3] = molecular target: T1, Ornithine decarboxylase (Rattus norvegicus); conditions: 5 uM; remark: listed apart in the source
[4] = molecular target: T1, Ornithine decarboxylase (Rattus norvegicus); conditions: 5 uM; remark: listed apart in the source

SMILES: C#CC(N)CC(F)(F)CN (centres undefined)
- Inactivation time [1]: 9 min
- Ka [2]: 1
- Inactivation time [3]: > 200 min
- Inactivation time [4]: 85 min
